# Apparent affinities of Ab-14 variants for a coronavirus HR2 peptide

Antigen: PDVDLGDISGINAS, a 14-residue peptide of the SARS-CoV-2 spike HR2 region.

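The starting antibody came from a phage panning campaign against this peptide. Designed CDR sequences, proposed from the first random library and measured here. Their group label is 14L_GP_HC (GP: Gaussian process model; HC: hill climbing; a sequence that several methods proposed may carry one label only). AlphaSeq pools MATa yeast showing the antibodies with MATalpha yeast showing the peptide. After mating in shaken culture at 30 °C for 16 h, diploids were selected and their barcode pairs sequenced. A regression on co-assayed BCL2-family reference pairs converts the normalised counts of each replicate to an apparent Kd. The assay was run in six technical replicates.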

Ab-14 is the parent antibody, in scFv form: VH, then a (GGGGS)3 linker, then VL. The heavy chain is unchanged in all variants.
VH: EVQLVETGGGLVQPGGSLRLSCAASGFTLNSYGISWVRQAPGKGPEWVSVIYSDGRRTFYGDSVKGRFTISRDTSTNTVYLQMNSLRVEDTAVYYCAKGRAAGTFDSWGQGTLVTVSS
VL: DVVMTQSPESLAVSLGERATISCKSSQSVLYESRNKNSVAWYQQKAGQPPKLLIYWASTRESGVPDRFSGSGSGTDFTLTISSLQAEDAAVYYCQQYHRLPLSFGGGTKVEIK

Each variant is given by its three light chain CDRs, as the data file delimits them; those of the parent are KSSQSVLYESRNKNSVA, WASTRES, QQYHRLPLS. Scale: log10 of Kd in nM, estimated from mating counts; low values are strong binders. Averages over replicates are reported, and they cover detected replicates only. "nd" means that the variant was in the library but no mating with the target was seen in that replicate; the authors take this as a sign of poor binding, and no number exists. Background: pairings of all light chain designs with three empty control strains gave a value in 4% of cases (median 2.64, 5th percentile 1.59). Values in that range, when seen in few replicates, are hard to tell from nonspecific mating. Also given: how often the same scFv was detected with the empty control strains, with their mean in brackets.

CDR-L1 | CDR-L2 | CDR-L3 | replicates, log10 nM | mean log10 Kd (nM) | signal with controls
KFSISGLYESRMKNSVA | EASTRES | QQYHRLPLS | 0.16 / 0.16 / 0.04 / 0.06 / 0.09 / 0.47 | 0.16 | 2/18 (2.72)
KLPQSVLYESRNKNSVA | GASTRED | QSYHRLPLS | 0.03 / -0.08 / -0.10 / -0.29 / -0.17 / 0.18 | -0.07 | 2/18 (3.40)
KSSWSVLTESRNKNSVA | DASTRSS | QQYHRLPLS | 0.47 / 0.38 / 0.30 / 0.17 / 0.36 / 0.51 | 0.36 | 0/18
KLLQSTLYESRNKNSVA | NASTRLS | QQYHRLPLS | -0.22 / -0.12 / -0.18 / -0.31 / -0.24 / 0.04 | -0.17 | 1/18 (2.73)
KSSISYLYESLNKNSVA | NASTRES | QQYHRLPLS | 0.17 / -0.17 / 0.17 / -0.16 / 0.13 / 0.13 | 0.05 | 2/18 (2.40)
KSSISGLYESRMKNSVA | EASTREQ | QQYHRLPLS | nd / 1.04 / -0.18 / 1.11 / 1.51 / 1.68 | 1.03 | 0/18
KLRQSTLYESRNKNSVA | RASTRLS | QQYHRLPLS | 2.46 / 2.40 / 3.32 / 2.04 / 1.88 / 3.21 | 2.55 | 0/18
KSSISYLEESRNKNSVA | EASTRED | QQYHRLPLS | 1.71 / 0.95 / 0.30 / 0.86 / 1.49 / nd | 1.06 | 0/18
KSGQSVLYESRNKNSVA | GASLRES | QQYHRLPLS | 0.12 / 0.31 / 0.06 / 0.06 / -0.07 / -0.07 | 0.07 | 0/18
KHSQVYLYESRNKNSVA | GASTRES | QQYHRLPLS | 0.23 / 0.14 / -0.08 / -0.14 / 0.15 / 0.10 | 0.06 | 0/18
KQSQSVLYESVNKNSVA | DASTREQ | QQYHRLPLS | 0.23 / 0.48 / -0.05 / -0.02 / 0.21 / 0.66 | 0.25 | 2/18 (2.71)
KSSKSVLFESRNKNSVA | NASTRED | QQYHRLPLS | 0.55 / 0.67 / 0.52 / 0.43 / 0.76 / 0.40 | 0.55 | 2/18 (2.17)
KSLQSVLEESRNKNSVA | HASTRED | QQYHVLPLS | 0.47 / 0.59 / 0.59 / 0.30 / 0.48 / 0.59 | 0.50 | 1/18 (3.48)
KVSQSVLYESRQKNSVA | NASTRES | QQMHRLPLS | nd / nd / nd / nd / nd / nd | nd | 0/18
KFSQSVLYESRQKNGVA | NASTRES | QQYHRLPLS | -0.38 / -0.13 / -0.46 / -0.33 / -0.42 / -0.32 | -0.34 | 2/18 (2.57)
KSSGGWLYESRNKNSVA | GASTRED | QQYHRLPLS | -0.07 / -0.18 / 0.01 / -0.40 / -0.09 / -0.16 | -0.15 | 3/18 (3.30)
KMSQSVLFQSRNKNSVA | DASTRES | QQYHRLPLS | -0.11 / -0.14 / -0.39 / -0.48 / -0.37 / -0.28 | -0.29 | 0/18
KLSQSYLYESGNKNSVA | HASTRES | QQYHRLPLS | 0.38 / 0.11 / 0.48 / 0.11 / -0.11 / 0.00 | 0.16 | 1/18 (2.40)
KLMQSVLYESRNKNSVA | HASTRED | QQYHQLPLS | 0.53 / 0.20 / 0.04 / -0.03 / 0.15 / 0.10 | 0.17 | 0/18
KMEQGELYESRNKNSVA | GASVRES | QQYHRLPLS | 0.28 / -0.07 / 0.07 / -0.24 / -0.30 / 0.26 | 0.00 | 0/18
KSSQSVLYESLNKNSVA | NASTRMS | QQYHRLPLS | 0.73 / 0.46 / 0.42 / 0.40 / 0.39 / 0.66 | 0.51 | 1/18 (2.88)
KVSQSYLYESRNKNSVA | GASTRES | QQYHRLPLS | 0.05 / -0.13 / -0.15 / -0.21 / -0.09 / -0.06 | -0.10 | 1/18 (2.93)
KLGQGVLYESRNKNSVA | GASQRES | QQYHRLPLS | -0.30 / -0.31 / -0.59 / -0.67 / -0.50 / -0.37 | -0.45 | 1/18 (2.20)
KQSQAFLQESRNMNSVA | DANTRES | QQYHRLPLS | 0.33 / 0.23 / 0.16 / -0.07 / -0.10 / 0.27 | 0.13 | 0/18
KSSISGLYESRAKNSVA | EASTRES | QQYHRLPLS | 0.86 / nd / 0.83 / 1.59 / 0.98 / 2.06 | 1.26 | 1/18 (1.55)
KSLQSQLYESRNFNSVA | HASTRED | QQYHRLPLS | 0.74 / 0.64 / 0.60 / 0.53 / 0.77 / 1.14 | 0.74 | 2/18 (2.46)
KSSQLVLYESRNKNSVA | GASTRES | QQYHRLPLS | -0.47 / -0.23 / -0.42 / -0.59 / -0.08 / -0.27 | -0.34 | 0/18
QSSQSALYESRNKNSVA | GASTRES | QQYHRLPLS | 0.49 / 0.54 / 0.39 / 0.14 / 0.43 / 1.07 | 0.51 | 0/18
KSSFSYLYESGNKNSVA | EASTRES | QQYHRLPLS | 0.66 / 0.31 / 0.40 / 0.44 / 0.53 / 0.48 | 0.47 | 0/18
KSSISQLGEKRNKNSVA | EASTRES | QQYHRLPLS | 0.67 / 0.17 / 0.46 / 0.51 / -0.04 / 0.25 | 0.34 | 0/18
KMEQGVPYESRNKNSVA | GASVRES | QQYHRLPLS | -0.14 / -0.42 / -0.27 / -0.55 / -0.62 / -0.41 | -0.40 | 0/18
KFSQWVLYEPRTKNSVA | NASTRES | QQYHRLPLS | 0.44 / 0.49 / 0.23 / 0.50 / 0.47 / 0.81 | 0.49 | 0/18
KSSESWLYESRNKNSVA | HASTREQ | QQYHRLPLS | -0.22 / -0.05 / -0.35 / -0.39 / -0.20 / -0.10 | -0.22 | 1/18 (3.24)
KFSQSVLYESTTSNSVA | NASTRES | QQYHRLPLS | 0.38 / 0.81 / 0.42 / 0.15 / 0.36 / 0.27 | 0.40 | 2/18 (2.30)
KSSQSHLYESGNKNSVA | HASTRES | QQYHRLPLS | 0.87 / 0.81 / 0.58 / 1.20 / 0.63 / 0.89 | 0.83 | 0/18
KQSQSVLYEGRNKNSVA | MASTRES | QQYHRLPLS | nd / nd / nd / 1.36 / 1.42 / nd | 1.39 | 0/18
KSSPSVLYESRNKNSVA | NASTRMS | QQYHRLPLS | 0.19 / 0.05 / 0.00 / -0.11 / -0.07 / 0.27 | 0.05 | 0/18
KQPQSVLYESVNKNSVA | DASTRES | QQYHRLPLS | 0.47 / 0.60 / 0.36 / 0.11 / 0.49 / 0.63 | 0.44 | 2/18 (2.20)
KSSASVDNESRNKNSVA | DASTRES | QQYHRLPLS | 0.21 / -0.07 / -0.08 / -0.19 / -0.03 / 0.17 | 0.00 | 1/18 (1.88)
KSLQSQEYESRNKNSVA | HASTRED | QQYHQLPLS | -0.11 / -0.11 / -0.20 / -0.28 / -0.35 / -0.07 | -0.19 | 0/18
KLRQSTLYESRNKNNVA | WASTRES | QQYHRLPLS | 1.89 / 0.81 / 1.47 / 1.00 / 1.06 / 1.44 | 1.28 | 0/18
KQSQEFLYESRNKNSVA | DASTRES | QQYHRLPLS | 0.04 / 0.15 / 0.18 / -0.24 / 0.06 / 0.12 | 0.05 | 0/18
KSSLSVDHESRNKNSVA | DASTRES | QQYHRLPLS | 0.16 / -0.30 / -0.20 / -0.26 / -0.29 / 0.03 | -0.14 | 0/18
KMSQSELYESRNKNSVA | DASTRES | QQYHRLPLS | -0.07 / -0.13 / -0.04 / -0.21 / -0.09 / 0.11 | -0.07 | 3/18 (2.67)
KSSQSDGYESRNKNSVA | GASTRES | QQYHRLPLS | 1.58 / 0.60 / 1.14 / 0.42 / 1.70 / 1.47 | 1.15 | 0/18
KLRQSTLYESRNQNSVA | WASTRED | QQYHRLPLS | 1.07 / 1.36 / 0.97 / 0.85 / 1.16 / 1.20 | 1.10 | 1/18 (2.78)

Excerpt, the first 7 entries:

CDR-L1 | CDR-L2 | CDR-L3 | replicates, log10 nM | mean log10 Kd (nM) | signal with controls
KFSISGLYESRMKNSVA | EASTRES | QQYHRLPLS | 0.16 / 0.16 / 0.04 / 0.06 / 0.09 / 0.47 | 0.16 | 2/18 (2.72)
KLPQSVLYESRNKNSVA | GASTRED | QSYHRLPLS | 0.03 / -0.08 / -0.10 / -0.29 / -0.17 / 0.18 | -0.07 | 2/18 (3.40)
KSSWSVLTESRNKNSVA | DASTRSS | QQYHRLPLS | 0.47 / 0.38 / 0.30 / 0.17 / 0.36 / 0.51 | 0.36 | 0/18
KLLQSTLYESRNKNSVA | NASTRLS | QQYHRLPLS | -0.22 / -0.12 / -0.18 / -0.31 / -0.24 / 0.04 | -0.17 | 1/18 (2.73)
KSSISYLYESLNKNSVA | NASTRES | QQYHRLPLS | 0.17 / -0.17 / 0.17 / -0.16 / 0.13 / 0.13 | 0.05 | 2/18 (2.40)
KSSISGLYESRMKNSVA | EASTREQ | QQYHRLPLS | nd / 1.04 / -0.18 / 1.11 / 1.51 / 1.68 | 1.03 | 0/18
KLRQSTLYESRNKNSVA | RASTRLS | QQYHRLPLS | 2.46 / 2.40 / 3.32 / 2.04 / 1.88 / 3.21 | 2.55 | 0/18

A sequence measured in both rounds can read differently, since the two assays cover different ranges. The parent sequence was in this pool as ten entries: three were never detected, three once, and four in most replicates, with averages from 0.34 to 2.37. The authors averaged sequences with at least three values out of six and counted those with two or fewer as poor binders.

Source: Li et al. 2023 (doi:10.1038/s41467-023-39022-2), MIT Lincoln Laboratory and A-Alpha Bio; data file from the FLAb repository.